Measurements published in patent publication US11618758B2, “Bicyclic and tricyclic pyrimidine tyrosine kinase inhibitors with antitubulin activity and methods of treating a patient” (Duquesne University of the Holy Spirit, priority 2011, dated 2023).

Amino acid sequences for entries named in this document (tags omitted). Residues count along the entry.
UniProt P00533, 25-1210 limits assumed: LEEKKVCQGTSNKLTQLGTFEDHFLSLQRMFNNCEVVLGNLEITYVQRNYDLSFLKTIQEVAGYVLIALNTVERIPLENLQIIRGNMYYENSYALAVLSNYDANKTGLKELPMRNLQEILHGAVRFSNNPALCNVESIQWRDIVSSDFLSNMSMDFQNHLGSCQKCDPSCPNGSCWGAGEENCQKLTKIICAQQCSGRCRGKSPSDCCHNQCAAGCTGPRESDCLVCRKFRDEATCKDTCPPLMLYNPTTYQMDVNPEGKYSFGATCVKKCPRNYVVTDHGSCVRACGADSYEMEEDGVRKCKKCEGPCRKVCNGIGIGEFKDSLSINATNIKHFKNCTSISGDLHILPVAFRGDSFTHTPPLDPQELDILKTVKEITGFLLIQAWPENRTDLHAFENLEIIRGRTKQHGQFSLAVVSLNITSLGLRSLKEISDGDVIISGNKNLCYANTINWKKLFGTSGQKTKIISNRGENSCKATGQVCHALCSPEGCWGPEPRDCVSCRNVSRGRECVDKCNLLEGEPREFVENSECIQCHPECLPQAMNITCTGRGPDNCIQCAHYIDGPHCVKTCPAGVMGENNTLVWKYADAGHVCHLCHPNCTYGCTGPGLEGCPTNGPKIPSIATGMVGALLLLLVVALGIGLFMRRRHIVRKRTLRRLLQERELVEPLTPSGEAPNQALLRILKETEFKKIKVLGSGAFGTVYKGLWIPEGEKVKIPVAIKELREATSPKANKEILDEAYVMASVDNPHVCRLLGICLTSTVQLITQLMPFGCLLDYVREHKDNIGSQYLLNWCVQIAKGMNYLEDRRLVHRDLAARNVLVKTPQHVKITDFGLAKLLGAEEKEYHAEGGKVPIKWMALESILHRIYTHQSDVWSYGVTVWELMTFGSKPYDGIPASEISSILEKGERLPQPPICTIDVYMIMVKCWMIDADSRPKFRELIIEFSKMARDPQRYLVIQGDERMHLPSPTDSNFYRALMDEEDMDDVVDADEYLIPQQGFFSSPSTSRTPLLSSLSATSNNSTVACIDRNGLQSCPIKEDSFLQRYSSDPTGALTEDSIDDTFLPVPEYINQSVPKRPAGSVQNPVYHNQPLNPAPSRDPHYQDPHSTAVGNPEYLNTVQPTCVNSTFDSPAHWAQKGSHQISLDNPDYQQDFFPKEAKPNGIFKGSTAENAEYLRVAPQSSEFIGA
UniProt P35968, 20-1356 limits assumed: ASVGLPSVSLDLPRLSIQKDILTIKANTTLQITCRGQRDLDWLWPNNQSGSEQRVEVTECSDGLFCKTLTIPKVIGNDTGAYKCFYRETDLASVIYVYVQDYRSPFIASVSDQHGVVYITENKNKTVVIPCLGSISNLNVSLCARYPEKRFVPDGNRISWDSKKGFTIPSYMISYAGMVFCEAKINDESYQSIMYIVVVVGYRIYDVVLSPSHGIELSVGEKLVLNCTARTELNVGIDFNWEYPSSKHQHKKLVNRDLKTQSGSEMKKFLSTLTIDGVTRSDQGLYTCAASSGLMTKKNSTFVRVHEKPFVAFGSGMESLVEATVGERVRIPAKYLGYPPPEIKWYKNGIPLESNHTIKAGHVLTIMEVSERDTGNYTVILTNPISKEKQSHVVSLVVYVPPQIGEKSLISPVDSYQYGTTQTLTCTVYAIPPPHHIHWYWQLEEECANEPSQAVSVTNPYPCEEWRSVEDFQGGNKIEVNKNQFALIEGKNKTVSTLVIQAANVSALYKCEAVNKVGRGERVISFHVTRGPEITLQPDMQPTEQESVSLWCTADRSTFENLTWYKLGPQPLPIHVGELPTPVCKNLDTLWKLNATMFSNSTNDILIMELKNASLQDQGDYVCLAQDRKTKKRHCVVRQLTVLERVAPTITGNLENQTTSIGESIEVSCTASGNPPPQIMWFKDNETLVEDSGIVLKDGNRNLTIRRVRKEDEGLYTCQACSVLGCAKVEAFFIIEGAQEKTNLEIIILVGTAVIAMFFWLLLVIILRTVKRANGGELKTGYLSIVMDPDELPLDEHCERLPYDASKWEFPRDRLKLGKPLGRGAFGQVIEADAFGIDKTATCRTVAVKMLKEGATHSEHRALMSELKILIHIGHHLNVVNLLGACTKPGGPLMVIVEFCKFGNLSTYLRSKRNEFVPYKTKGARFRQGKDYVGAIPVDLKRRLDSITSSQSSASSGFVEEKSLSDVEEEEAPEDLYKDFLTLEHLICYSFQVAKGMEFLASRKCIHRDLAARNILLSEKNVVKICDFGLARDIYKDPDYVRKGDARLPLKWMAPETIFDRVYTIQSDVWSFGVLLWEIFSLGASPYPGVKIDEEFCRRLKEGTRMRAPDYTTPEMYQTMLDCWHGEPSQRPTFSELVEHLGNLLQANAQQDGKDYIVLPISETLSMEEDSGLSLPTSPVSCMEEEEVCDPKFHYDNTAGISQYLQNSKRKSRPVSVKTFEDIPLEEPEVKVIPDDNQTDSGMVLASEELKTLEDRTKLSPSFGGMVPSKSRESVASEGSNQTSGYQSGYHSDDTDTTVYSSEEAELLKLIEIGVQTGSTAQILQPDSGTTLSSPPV
UniProt P09619, 33-1106 limits assumed: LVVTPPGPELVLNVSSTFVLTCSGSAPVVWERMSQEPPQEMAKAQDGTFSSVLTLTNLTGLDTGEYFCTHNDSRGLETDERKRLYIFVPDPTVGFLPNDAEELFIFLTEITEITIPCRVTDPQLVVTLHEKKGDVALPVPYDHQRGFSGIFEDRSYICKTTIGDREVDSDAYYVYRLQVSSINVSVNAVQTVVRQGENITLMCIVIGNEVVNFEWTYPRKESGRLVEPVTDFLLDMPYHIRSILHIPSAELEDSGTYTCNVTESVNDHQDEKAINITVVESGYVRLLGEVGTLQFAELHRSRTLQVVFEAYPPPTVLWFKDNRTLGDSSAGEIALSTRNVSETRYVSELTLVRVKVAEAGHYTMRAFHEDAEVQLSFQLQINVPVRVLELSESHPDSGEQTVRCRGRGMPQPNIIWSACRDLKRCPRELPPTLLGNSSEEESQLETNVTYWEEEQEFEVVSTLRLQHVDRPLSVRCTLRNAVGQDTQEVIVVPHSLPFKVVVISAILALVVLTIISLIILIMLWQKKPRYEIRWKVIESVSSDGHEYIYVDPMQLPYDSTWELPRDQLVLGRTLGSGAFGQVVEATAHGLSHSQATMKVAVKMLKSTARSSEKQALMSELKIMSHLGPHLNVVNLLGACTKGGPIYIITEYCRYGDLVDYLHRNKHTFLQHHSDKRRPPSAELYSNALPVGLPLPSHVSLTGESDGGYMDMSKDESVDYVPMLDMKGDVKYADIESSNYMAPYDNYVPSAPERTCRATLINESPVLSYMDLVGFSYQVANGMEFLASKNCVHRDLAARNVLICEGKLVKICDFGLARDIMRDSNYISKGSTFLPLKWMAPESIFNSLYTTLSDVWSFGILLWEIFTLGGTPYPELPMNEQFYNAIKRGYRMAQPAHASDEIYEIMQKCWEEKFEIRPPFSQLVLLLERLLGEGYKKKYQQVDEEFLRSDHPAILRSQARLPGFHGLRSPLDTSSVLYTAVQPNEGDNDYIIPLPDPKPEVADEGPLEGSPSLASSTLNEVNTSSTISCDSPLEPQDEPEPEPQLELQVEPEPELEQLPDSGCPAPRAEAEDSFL

Tests used:
[1] = tested on: 786-0; test: NCI 60 tumor panel, tumor cell inhibitory activity; settings: Renal Cancer, tested form: HCl
[2] = tested on: A498; test: NCI 60 tumor panel, tumor cell inhibitory activity; settings: Renal Cancer, tested form: HCl
[3] = tested on: A549/ATCC; test: NCI 60 tumor panel, tumor cell inhibitory activity; settings: NSCLC, tested form: HCl
[4] = tested on: ACHN; test: NCI 60 tumor panel, tumor cell inhibitory activity; settings: Renal Cancer, tested form: HCl
[5] = tested on: BT-549; test: NCI 60 tumor panel, tumor cell inhibitory activity; settings: Breast Cancer, tested form: HCl
[6] = tested on: CAKI-1; test: NCI 60 tumor panel, tumor cell inhibitory activity; settings: Renal Cancer, tested form: HCl
[7] = tested on: CCRF-CEM; test: NCI 60 tumor panel, tumor cell inhibitory activity; settings: Leukemia, tested form: HCl
[8] = tested on: COLO 205; test: NCI 60 tumor panel, tumor cell inhibitory activity; settings: Colon Cancer, tested form: HCl
[9] = tested on: DU-145; test: NCI 60 tumor panel, tumor cell inhibitory activity; settings: Prostate Cancer, tested form: HCl
[10] = tested on: EKVX; test: NCI 60 tumor panel, tumor cell inhibitory activity; settings: NSCLC, tested form: HCl
[11] = tested on: HCC-2998; test: NCI 60 tumor panel, tumor cell inhibitory activity; settings: Colon Cancer, tested form: HCl
[12] = tested on: HCT-116; test: NCI 60 tumor panel, tumor cell inhibitory activity; settings: Colon Cancer, tested form: HCl
[13] = tested on: HCT-15; test: NCI 60 tumor panel, tumor cell inhibitory activity; settings: Colon Cancer, tested form: HCl
[14] = tested on: HL-60 (TB); test: NCI 60 tumor panel, tumor cell inhibitory activity; settings: Leukemia, tested form: HCl
[15] = tested on: HOP-62; test: NCI 60 tumor panel, tumor cell inhibitory activity; settings: NSCLC, tested form: HCl
[16] = tested on: HOP-92; test: NCI 60 tumor panel, tumor cell inhibitory activity; settings: NSCLC, tested form: HCl
[17] = tested on: HS 578T; test: NCI 60 tumor panel, tumor cell inhibitory activity; settings: Breast Cancer, tested form: HCl
[18] = tested on: HT29; test: NCI 60 tumor panel, tumor cell inhibitory activity; settings: Colon Cancer, tested form: HCl
[19] = tested on: IGROVI; test: NCI 60 tumor panel, tumor cell inhibitory activity; settings: Ovarian cancer, tested form: HCl
[20] = tested on: K-562; test: NCI 60 tumor panel, tumor cell inhibitory activity; settings: Leukemia, tested form: HCl
[21] = tested on: KM12; test: NCI 60 tumor panel, tumor cell inhibitory activity; settings: Colon Cancer, tested form: HCl
[22] = tested on: LOX IMVI; test: NCI 60 tumor panel, tumor cell inhibitory activity; settings: Melanoma, tested form: HCl
[23] = tested on: M14; test: NCI 60 tumor panel, tumor cell inhibitory activity; settings: Melanoma, tested form: HCl
[24] = tested on: MCF7; test: NCI 60 tumor panel, tumor cell inhibitory activity; settings: Breast Cancer, tested form: HCl
[25] = tested on: MDA-MB-231/ATCC; test: NCI 60 tumor panel, tumor cell inhibitory activity; settings: Breast Cancer, tested form: HCl
[26] = tested on: MDA-MB-435; test: NCI 60 tumor panel, tumor cell inhibitory activity; settings: Melanoma, tested form: HCl
[27] = tested on: MDA-MB-468; test: NCI 60 tumor panel, tumor cell inhibitory activity; settings: Breast Cancer, tested form: HCl
[28] = tested on: MOLT-4; test: NCI 60 tumor panel, tumor cell inhibitory activity; settings: Leukemia, tested form: HCl
[29] = tested on: NCI-H226; test: NCI 60 tumor panel, tumor cell inhibitory activity; settings: NSCLC, tested form: HCl
[30] = tested on: NCI-H23; test: NCI 60 tumor panel, tumor cell inhibitory activity; settings: NSCLC, tested form: HCl
[31] = tested on: NCI-H322M; test: NCI 60 tumor panel, tumor cell inhibitory activity; settings: NSCLC, tested form: HCl
[32] = tested on: NCI-H460; test: NCI 60 tumor panel, tumor cell inhibitory activity; settings: NSCLC, tested form: HCl
[33] = tested on: NCI/ADR-RES; test: NCI 60 tumor panel, tumor cell inhibitory activity; settings: Ovarian cancer, tested form: HCl
[34] = tested on: OVCAR-3; test: NCI 60 tumor panel, tumor cell inhibitory activity; settings: Ovarian cancer, tested form: HCl
[35] = tested on: OVCAR-4; test: NCI 60 tumor panel, tumor cell inhibitory activity; settings: Ovarian cancer, tested form: HCl
[36] = tested on: OVCAR-5; test: NCI 60 tumor panel, tumor cell inhibitory activity; settings: Ovarian cancer, tested form: HCl
[37] = tested on: OVCAR-8; test: NCI 60 tumor panel, tumor cell inhibitory activity; settings: Ovarian cancer, tested form: HCl
[38] = tested on: PC-3; test: NCI 60 tumor panel, tumor cell inhibitory activity; settings: Prostate Cancer, tested form: HCl
[39] = tested on: RPMI-8226; test: NCI 60 tumor panel, tumor cell inhibitory activity; settings: Leukemia, tested form: HCl
[40] = tested on: RXF 393; test: NCI 60 tumor panel, tumor cell inhibitory activity; settings: Renal Cancer, tested form: HCl
[41] = tested on: SF-268; test: NCI 60 tumor panel, tumor cell inhibitory activity; settings: CNS Cancer, tested form: HCl
[42] = tested on: SF-295; test: NCI 60 tumor panel, tumor cell inhibitory activity; settings: CNS Cancer, tested form: HCl
[43] = tested on: SF-539; test: NCI 60 tumor panel, tumor cell inhibitory activity; settings: CNS Cancer, tested form: HCl
[44] = tested on: SK-MEL-28; test: NCI 60 tumor panel, tumor cell inhibitory activity; settings: Melanoma, tested form: HCl
[45] = tested on: SK-MEL-2; test: NCI 60 tumor panel, tumor cell inhibitory activity; settings: Melanoma, tested form: HCl
[46] = tested on: SK-MEL-5; test: NCI 60 tumor panel, tumor cell inhibitory activity; settings: Melanoma, tested form: HCl
[47] = tested on: SK-OV-3; test: NCI 60 tumor panel, tumor cell inhibitory activity; settings: Ovarian cancer, tested form: HCl
[48] = tested on: SN12C; test: NCI 60 tumor panel, tumor cell inhibitory activity; settings: Renal Cancer, tested form: HCl
[49] = tested on: SNB-19; test: NCI 60 tumor panel, tumor cell inhibitory activity; settings: CNS Cancer, tested form: HCl
[50] = tested on: SNB-75; test: NCI 60 tumor panel, tumor cell inhibitory activity; settings: CNS Cancer, tested form: HCl
[51] = tested on: SR; test: NCI 60 tumor panel, tumor cell inhibitory activity; settings: Leukemia, tested form: HCl
[52] = tested on: SW-620; test: NCI 60 tumor panel, tumor cell inhibitory activity; settings: Colon Cancer, tested form: HCl
[53] = tested on: U251; test: NCI 60 tumor panel, tumor cell inhibitory activity; settings: CNS Cancer, tested form: HCl
[54] = tested on: UACC-62; test: NCI 60 tumor panel, tumor cell inhibitory activity; settings: Melanoma, tested form: HCl
[55] = tested on: UO-31; test: NCI 60 tumor panel, tumor cell inhibitory activity; settings: Renal Cancer, tested form: HCl
[56] = tested on: NCI 60 tumor cell lines; test: NCI 60 tumor panel, whole panel statement; settings: tested form: HCl
[57] = tested on: colchicine binding site on tubulin; test: Inhibition of [3H]colchicine binding; settings: compound at 1 μM, tested form: HCl
[58] = biological target: epidermal growth factor receptor (EGFR) (Homo sapiens, UniProt P00533); test: Kinase inhibition EGFR; assay type: biochemical; settings: tested form: HCl
[59] = biological target: vascular endothelial growth factor receptor (VEGFR2, Flk-1) (Homo sapiens, UniProt P35968); test: Kinase inhibition VEGFR2; assay type: biochemical; settings: tested form: HCl
[60] = biological target: platelet derived growth factor receptor-β (PDGFR-β) (Homo sapiens, UniProt P09619); test: Kinase inhibition PDGFRβ; assay type: biochemical; settings: tested form: HCl
[61] = tested on: 50 other kinases; test: Kinase profiling service (Luceome Biotechnologies); assay type: biochemical; settings: 10 μM; tested form: HCl
[62] = tested on: Pgp or MRP; test: Pgp / MRP substrate status; settings: tested form: HCl

Compound: COc1ccc2c(c1)CCCN2c1nc(C)nc2cc(C)[nH]c12
- GI50 [1]: 63.1 nM
- GI50 [2]: 24.3 nM
- GI50 [3]: 40.1 nM
- GI50 [4]: 70.1 nM
- GI50 [5]: 218 nM
- GI50 [6]: 42.3 nM
- GI50 [7]: 35.1 nM
- GI50 [8]: 27.4 nM
- GI50 [9]: 34.9 nM
- GI50 [10]: 99.6 nM
- GI50 [11]: 86 nM
- GI50 [12]: 39.2 nM
- GI50 [13]: 42.1 nM
- GI50 [14]: 26.2 nM
- GI50 [15]: 45.3 nM
- GI50 [16]: 59.5 nM
- GI50 [17]: 30.2 nM
- GI50 [18]: 37.7 nM
- GI50 [19]: 47 nM
- GI50 [20]: 41.5 nM
- GI50 [21]: 35.6 nM
- GI50 [22]: 72.5 nM
- GI50 [23]: 29.4 nM
- GI50 [24]: 38 nM
- GI50 [25]: 101 nM
- GI50 [26]: 17 nM
- GI50 [27]: 23.4 nM
- GI50 [28]: 98.3 nM
- GI50 [29]: 82.3 nM
- GI50 [30]: 71 nM
- GI50 [31]: 44.2 nM
- GI50 [32]: 36.9 nM
- GI50 [33]: 29.4 nM
- GI50 [34]: 22.7 nM
- GI50 [35]: 96.6 nM
- GI50 [36]: 60.7 nM
- GI50 [37]: 43.9 nM
- GI50 [38]: 50.4 nM
- GI50 [39]: 42.9 nM
- GI50 [40]: 28.9 nM
- GI50 [41]: 62.6 nM
- GI50 [42]: 16.6 nM
- GI50 [43]: 25.4 nM
- GI50 [44]: 74.9 nM
- GI50 [45]: 56.5 nM
- GI50 [46]: 48.6 nM
- GI50 [47]: 33.9 nM
- GI50 [48]: 84.9 nM
- GI50 [49]: 50.3 nM
- GI50 [50]: 38 nM
- GI50 [51]: 30.9 nM
- GI50 [52]: 39.8 nM
- GI50 [53]: 39.9 nM
- GI50 [54]: 48.4 nM
- GI50 [55]: 54.3 nM
- GI50 in all the NCI 60 tumor cell lines (in words) [56]: 2-digit nanomolar
- Inhibition of colchicine binding (1 μM) [57]: 76%
- EGFR kinase inhibition (in words, FIG. 16) ([58]; comparable to sunitinib): potent inhibitors
- IC50 ([58]; read-out: kinase inhibition IC50 EGFR): 20200 nM
- Flk-1 (VEGR2) kinase inhibition (in words, FIG. 16) ([59]; comparable to sunitinib): potent inhibitors
- IC50 ([59]; read-out: kinase inhibition IC50 VEGFR2): 30600 nM
- PDGFR kinase inhibition (in words, FIG. 16) ([60]; comparable to sunitinib): potent inhibitors
- IC50 ([60]; read-out: kinase inhibition IC50 PDGFRβ): 82300 nM
- activity against 50 other kinases [61]: no activity
- Pgp or MRP substrate [62]: unlikely to be Pgp or MRP substrates
